Laboratory results published in patent US20260166039A1 (SCHRÖDINGER, INC., priority 2022, published 2026).

The chains behind the UniProt entries cited, without tags or fusion partners. Residues count along the entry.
UniProt P30291, 299-569 limits assumed: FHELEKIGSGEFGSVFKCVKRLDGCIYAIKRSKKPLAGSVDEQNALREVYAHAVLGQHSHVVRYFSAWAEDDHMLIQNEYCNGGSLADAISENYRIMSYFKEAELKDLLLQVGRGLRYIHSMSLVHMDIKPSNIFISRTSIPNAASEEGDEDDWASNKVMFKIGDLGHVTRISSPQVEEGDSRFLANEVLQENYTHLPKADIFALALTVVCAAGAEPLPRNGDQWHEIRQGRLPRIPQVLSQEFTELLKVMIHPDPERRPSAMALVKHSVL

Target: Wee1 kinase domain (Homo sapiens, UniProt P30291)
Experiment: Wee1 Kinase Biochemical Assay (ADP-Glo)
Conditions: read-out: WEE1 kinase ADP-Glo IC50, 15 uM ATP
Method: Wee1 Kinase Biochemical Assay Protocol
Wee1 kinase domain was purchased from Carna (catalog #05-177). Wee1 kinase activity was determined with Poly(Lys,Tyr 4:1) hydrobromide as a substrate (Sigma-Aldrich) and by measuring ADP production using the ADP-Glo Kinase Assay kit (Promega) following the manufacturer's instructions. The kinase reaction was performed using the following conditions:
Buffer: 40 mM Tris-HCl, 20 mM magnesium chloride, supplemented with 0.1 mg/mL bovine serum albumin and 2 mM DTT. The final reaction mix contained 1 nM Wee1 enzyme, 15 uM ATP, and 2 ng/mL Poly(Lys,Tyr 4:1) hydrobromide substrate. The reaction time was 4 hours at 25° C.
The ADP-Glo signal was measured using the Envision plate reader and the percentage inhibition of kinase activity calculated for each inhibitor tested. Percent inhibition of Wee1 kinase activity was calculated based on the following formula.
[formula] • SSample: the signal of compounds • SHigh Ctrl: the signal of high control (DMSO) • SLow Ctrl: the signal of low control (positive control Wee1 inhibitor at saturating concentration)

Q: With `CC1(C)C[C@@H]2N(c3cccc(N=S(C)(C)=O)n3)c3nc(Nc4ccc([C@@H]5CCNC5)cc4)ncc3[C@]2(C)CO1` as the compound, how does the pIC50 read?
A: 7.00 to 8.00

pIC50: −log10 of the molar value.
